Data published in US20170280728A1, “ANTIMICROBIAL COMPOSITIONS AND METHODS OF THEIR USE” (CMS TECHNOLOGY, INC.., priority 2014, published 2017).

Tested on: General Bacteria (bacterial bird rinse)
Experiment: General Bacteria Assay (Vivione RAPID-B Total Plate Count)
Format: cell-based

## OCl
5 ppm chlorine, pH at inoculation 6.57, Baseline 1562
  Average Live: 1452
5 ppm chlorine, pH at inoculation 7.13, Baseline 408
  Average Live: 405
10 ppm chlorine, pH at inoculation 6.65, Baseline 1562
  Average Live: 859
10 ppm chlorine, pH at inoculation 7.11, Baseline 408
  Average Live: 387
20 ppm chlorine, pH at inoculation 7.02, Baseline 408
  Average Live: 90
